From US20190161480A1, “Chemical Compounds” (GLAXOSMITHKLINE INTELLECTUAL PROPERTY DEVELOPMENT LIMITED, priority 2016, published 2019)

By UniProt entry, the sequences of proteins in these tests, tags left out. Where a name states a change or a piece, a line headed by the entry shows the natural chain unless it says otherwise.
UniProt O00329: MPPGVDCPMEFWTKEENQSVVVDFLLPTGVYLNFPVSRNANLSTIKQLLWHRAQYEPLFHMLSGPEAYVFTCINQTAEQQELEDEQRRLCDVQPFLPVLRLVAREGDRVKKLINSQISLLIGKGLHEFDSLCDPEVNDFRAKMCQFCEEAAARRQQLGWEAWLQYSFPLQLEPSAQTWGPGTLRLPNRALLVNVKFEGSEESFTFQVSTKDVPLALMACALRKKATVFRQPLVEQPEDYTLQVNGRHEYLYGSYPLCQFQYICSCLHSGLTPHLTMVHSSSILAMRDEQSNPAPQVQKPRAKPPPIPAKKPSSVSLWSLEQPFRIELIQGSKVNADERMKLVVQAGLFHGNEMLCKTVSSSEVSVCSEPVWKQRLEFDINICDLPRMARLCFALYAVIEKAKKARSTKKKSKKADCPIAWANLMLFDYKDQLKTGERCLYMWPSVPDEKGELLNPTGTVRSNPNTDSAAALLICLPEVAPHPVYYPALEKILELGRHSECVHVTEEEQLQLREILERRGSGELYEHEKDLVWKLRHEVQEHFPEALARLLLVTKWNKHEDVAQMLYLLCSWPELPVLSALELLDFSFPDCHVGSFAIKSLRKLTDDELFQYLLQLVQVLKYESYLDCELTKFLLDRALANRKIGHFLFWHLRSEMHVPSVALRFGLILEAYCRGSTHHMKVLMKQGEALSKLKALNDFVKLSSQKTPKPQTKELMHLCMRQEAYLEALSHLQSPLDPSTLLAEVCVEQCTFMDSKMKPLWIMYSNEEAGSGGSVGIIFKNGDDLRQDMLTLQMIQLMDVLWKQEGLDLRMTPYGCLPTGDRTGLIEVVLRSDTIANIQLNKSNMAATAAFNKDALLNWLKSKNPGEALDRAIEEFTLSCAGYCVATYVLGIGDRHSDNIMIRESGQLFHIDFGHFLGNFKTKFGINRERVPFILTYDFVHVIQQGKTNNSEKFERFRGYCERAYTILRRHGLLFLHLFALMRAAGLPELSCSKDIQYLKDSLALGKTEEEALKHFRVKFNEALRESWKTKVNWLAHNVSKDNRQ

Biological target: PI3Kδ (Homo sapiens, UniProt O00329)
Assay: PI3Kδ jump dilution experiment
Type: biochemical
Conditions: 15 min incubation, 100-fold dilution, read for 30 minutes
Protocol: Irreversibility of the PI3Kδ-Inhibitor complex, and reversibility of the non-covalent controls, was determined by jump-dilution assay as follows:
PI3Kδ enzyme was made up to a 100× assay concentration (final assay concentration=6 nM) in buffer solution (contains 50 mM HEPES pH 7.0 (NaOH), 150 mM NaCl, 10 mM MgCl2, 2.3 mM sodium cholate, 10 μM CHAPS made up in milliQ water).
100× enzyme solution was added to compound wells (20 μL/well), and incubated for 15 mins, after which point the assay was diluted 100-fold with commercially available ADP QUEST substrate solution, available from DiscoverX (calatog number: 90-0071), (3200 μL DiscoverX Reagent A, 6400 μL DiscoverX Reagent B, 1 mM ATP and 40 μM PIP2). Production of fluorescence signal was then measured immediately using a Tecan Safire II plate reader at 30 second intervals for 30 minutes (λex=544 nm, λem=590 nm).

COC[C@H]1OC(=O)c2coc3c2[C@@]1(C)C1=C(C3=O)[C@@H]2CCC(=O)[C@@]2(C)C[C@H]1OC(C)=O [Wortmannin, reference compound]
Recovery of enzyme activity after jump dilution: no recovery of activity
